According to ChEMBL document CHEMBL2218924, “A broad activity screen in support of a chemogenomic map for kinase signalling research and drug discovery” (Biochem J, 2013):
For some assays here: Shown are results outside the selection of strong results, which stands elsewhere. The rule behind the calls is not given here. The entries are a selection whose mix differs from that of the whole data set.

Sequences of proteins named here, by UniProt entry; tags and fusion partners are left off. A change or cut given only in a name is not applied to a line headed by its entry.
UniProt P42684, whole entry: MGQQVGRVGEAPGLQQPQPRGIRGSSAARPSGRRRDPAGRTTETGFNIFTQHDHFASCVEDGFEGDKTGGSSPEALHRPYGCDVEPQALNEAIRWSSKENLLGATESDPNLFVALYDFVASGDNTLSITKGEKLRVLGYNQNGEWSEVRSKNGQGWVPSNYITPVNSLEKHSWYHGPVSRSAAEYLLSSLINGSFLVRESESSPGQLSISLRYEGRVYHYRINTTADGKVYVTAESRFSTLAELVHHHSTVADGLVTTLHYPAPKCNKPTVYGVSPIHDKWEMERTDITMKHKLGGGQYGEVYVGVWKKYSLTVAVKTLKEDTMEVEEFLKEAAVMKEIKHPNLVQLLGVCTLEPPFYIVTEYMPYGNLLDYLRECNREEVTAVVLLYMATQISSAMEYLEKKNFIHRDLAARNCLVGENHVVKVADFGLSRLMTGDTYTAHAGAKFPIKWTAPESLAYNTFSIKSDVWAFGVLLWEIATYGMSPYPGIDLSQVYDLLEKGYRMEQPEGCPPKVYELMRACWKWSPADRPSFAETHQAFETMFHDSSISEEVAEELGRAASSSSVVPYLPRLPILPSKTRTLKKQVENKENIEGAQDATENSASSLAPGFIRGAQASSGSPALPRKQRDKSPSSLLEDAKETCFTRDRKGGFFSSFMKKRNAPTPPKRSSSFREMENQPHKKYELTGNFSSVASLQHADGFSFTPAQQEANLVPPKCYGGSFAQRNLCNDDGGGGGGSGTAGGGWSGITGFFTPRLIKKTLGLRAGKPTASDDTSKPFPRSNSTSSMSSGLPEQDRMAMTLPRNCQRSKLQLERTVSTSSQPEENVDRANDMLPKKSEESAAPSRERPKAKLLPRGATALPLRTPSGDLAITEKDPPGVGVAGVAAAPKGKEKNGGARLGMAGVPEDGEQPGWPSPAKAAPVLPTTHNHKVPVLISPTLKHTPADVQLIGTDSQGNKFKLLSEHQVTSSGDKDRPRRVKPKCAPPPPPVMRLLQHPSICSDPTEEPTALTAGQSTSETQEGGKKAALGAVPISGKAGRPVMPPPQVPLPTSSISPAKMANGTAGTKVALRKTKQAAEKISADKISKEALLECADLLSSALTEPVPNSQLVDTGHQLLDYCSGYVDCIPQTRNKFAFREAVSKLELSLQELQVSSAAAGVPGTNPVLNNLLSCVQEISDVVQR
UniProt O14757: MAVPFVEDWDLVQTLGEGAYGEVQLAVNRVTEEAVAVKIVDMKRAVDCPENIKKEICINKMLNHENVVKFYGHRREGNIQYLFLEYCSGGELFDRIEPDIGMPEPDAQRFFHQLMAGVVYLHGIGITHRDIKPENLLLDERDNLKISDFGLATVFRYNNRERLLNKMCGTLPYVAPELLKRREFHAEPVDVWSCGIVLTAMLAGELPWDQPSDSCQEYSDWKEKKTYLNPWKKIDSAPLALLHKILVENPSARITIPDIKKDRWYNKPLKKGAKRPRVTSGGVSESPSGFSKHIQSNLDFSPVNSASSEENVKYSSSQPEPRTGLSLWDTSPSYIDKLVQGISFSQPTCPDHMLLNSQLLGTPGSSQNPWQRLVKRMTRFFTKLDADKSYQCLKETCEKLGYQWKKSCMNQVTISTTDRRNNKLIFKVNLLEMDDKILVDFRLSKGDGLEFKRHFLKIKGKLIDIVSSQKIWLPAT
UniProt P41240: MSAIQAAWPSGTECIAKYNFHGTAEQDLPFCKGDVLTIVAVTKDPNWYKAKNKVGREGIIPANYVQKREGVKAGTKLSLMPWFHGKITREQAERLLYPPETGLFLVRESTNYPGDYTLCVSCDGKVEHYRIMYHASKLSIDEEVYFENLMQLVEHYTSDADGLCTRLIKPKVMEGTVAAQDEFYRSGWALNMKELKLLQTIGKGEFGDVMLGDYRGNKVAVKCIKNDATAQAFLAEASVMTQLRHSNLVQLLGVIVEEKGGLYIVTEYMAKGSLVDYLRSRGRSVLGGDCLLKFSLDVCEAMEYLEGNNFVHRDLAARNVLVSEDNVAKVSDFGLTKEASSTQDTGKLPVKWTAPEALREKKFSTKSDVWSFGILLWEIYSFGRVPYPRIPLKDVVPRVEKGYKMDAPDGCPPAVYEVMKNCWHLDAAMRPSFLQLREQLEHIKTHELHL
UniProt Q16566: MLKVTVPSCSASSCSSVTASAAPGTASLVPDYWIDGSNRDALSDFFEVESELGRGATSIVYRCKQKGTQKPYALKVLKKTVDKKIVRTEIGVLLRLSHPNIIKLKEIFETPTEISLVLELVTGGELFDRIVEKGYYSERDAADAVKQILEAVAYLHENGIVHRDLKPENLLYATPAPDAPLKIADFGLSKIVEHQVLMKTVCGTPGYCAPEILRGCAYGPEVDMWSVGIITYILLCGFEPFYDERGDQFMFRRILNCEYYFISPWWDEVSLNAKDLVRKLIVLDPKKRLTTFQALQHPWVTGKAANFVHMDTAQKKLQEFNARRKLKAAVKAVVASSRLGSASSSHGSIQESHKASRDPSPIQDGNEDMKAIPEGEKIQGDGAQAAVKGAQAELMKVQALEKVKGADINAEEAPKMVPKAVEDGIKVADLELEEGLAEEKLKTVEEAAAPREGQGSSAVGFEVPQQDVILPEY
UniProt Q09013: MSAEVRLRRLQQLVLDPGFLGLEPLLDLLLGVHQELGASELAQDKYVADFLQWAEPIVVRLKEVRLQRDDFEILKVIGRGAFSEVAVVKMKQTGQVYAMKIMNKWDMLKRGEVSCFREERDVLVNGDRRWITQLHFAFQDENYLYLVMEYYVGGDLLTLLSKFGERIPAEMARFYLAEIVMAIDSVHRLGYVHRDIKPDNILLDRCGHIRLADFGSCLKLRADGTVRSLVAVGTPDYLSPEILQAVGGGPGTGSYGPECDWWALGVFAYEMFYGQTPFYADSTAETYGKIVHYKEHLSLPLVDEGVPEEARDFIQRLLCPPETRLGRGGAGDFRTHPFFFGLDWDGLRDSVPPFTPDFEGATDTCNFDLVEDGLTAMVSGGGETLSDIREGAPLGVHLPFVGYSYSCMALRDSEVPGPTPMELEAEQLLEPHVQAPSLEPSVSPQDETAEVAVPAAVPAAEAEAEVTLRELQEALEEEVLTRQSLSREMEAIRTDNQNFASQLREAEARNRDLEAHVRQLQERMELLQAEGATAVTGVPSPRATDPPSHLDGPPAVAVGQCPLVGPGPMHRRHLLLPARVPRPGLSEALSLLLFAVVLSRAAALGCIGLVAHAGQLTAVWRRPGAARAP
UniProt P29317, whole entry: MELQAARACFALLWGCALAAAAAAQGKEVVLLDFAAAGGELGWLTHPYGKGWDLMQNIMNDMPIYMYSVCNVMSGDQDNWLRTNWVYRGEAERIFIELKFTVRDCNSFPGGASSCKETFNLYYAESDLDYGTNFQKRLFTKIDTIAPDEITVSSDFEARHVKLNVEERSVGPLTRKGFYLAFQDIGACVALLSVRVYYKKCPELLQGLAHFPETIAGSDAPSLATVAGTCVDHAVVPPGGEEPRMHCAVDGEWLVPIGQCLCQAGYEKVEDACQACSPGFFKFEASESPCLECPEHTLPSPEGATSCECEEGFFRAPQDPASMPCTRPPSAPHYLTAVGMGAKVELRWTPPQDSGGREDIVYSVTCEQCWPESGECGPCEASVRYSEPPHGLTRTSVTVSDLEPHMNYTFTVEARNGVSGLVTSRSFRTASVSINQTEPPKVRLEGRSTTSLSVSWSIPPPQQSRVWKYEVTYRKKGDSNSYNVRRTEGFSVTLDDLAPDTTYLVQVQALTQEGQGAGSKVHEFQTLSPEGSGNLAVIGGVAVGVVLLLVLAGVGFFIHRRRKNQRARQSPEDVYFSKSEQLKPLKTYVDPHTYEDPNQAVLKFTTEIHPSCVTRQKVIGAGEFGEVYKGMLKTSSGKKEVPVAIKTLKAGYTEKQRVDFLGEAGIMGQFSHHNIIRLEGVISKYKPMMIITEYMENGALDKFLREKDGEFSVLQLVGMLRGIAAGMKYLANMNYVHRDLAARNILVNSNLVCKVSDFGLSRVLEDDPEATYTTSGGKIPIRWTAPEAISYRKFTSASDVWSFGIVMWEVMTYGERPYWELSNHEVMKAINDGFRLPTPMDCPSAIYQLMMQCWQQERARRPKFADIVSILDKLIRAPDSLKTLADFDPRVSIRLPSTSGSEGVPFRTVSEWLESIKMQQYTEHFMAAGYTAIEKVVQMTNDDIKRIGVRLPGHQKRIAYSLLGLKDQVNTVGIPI
UniProt Q15375: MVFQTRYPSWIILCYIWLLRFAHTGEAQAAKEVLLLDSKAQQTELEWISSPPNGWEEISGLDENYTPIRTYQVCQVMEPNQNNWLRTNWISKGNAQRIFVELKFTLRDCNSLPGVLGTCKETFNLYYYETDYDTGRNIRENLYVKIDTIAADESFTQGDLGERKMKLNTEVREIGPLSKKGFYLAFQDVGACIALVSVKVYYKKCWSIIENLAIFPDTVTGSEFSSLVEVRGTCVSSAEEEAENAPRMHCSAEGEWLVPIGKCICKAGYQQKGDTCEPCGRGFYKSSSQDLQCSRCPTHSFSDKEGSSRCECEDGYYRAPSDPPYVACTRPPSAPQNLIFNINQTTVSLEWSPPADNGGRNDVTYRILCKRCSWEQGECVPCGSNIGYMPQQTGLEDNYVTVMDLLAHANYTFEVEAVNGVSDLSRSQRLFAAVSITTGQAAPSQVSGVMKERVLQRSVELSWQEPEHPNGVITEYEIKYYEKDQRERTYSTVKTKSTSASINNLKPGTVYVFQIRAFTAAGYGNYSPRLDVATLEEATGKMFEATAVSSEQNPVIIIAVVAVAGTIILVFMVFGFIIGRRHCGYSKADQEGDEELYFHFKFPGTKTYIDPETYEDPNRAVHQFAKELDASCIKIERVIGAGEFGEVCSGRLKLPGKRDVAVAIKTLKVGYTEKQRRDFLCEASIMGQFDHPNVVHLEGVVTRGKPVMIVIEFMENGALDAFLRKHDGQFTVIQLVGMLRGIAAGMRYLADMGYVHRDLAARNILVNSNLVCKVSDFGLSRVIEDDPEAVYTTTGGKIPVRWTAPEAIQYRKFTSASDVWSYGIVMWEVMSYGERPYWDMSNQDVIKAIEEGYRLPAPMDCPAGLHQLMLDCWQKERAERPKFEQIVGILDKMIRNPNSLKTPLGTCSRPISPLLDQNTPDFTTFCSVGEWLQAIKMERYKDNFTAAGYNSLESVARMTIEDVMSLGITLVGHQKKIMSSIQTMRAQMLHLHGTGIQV
UniProt Q15303, whole entry: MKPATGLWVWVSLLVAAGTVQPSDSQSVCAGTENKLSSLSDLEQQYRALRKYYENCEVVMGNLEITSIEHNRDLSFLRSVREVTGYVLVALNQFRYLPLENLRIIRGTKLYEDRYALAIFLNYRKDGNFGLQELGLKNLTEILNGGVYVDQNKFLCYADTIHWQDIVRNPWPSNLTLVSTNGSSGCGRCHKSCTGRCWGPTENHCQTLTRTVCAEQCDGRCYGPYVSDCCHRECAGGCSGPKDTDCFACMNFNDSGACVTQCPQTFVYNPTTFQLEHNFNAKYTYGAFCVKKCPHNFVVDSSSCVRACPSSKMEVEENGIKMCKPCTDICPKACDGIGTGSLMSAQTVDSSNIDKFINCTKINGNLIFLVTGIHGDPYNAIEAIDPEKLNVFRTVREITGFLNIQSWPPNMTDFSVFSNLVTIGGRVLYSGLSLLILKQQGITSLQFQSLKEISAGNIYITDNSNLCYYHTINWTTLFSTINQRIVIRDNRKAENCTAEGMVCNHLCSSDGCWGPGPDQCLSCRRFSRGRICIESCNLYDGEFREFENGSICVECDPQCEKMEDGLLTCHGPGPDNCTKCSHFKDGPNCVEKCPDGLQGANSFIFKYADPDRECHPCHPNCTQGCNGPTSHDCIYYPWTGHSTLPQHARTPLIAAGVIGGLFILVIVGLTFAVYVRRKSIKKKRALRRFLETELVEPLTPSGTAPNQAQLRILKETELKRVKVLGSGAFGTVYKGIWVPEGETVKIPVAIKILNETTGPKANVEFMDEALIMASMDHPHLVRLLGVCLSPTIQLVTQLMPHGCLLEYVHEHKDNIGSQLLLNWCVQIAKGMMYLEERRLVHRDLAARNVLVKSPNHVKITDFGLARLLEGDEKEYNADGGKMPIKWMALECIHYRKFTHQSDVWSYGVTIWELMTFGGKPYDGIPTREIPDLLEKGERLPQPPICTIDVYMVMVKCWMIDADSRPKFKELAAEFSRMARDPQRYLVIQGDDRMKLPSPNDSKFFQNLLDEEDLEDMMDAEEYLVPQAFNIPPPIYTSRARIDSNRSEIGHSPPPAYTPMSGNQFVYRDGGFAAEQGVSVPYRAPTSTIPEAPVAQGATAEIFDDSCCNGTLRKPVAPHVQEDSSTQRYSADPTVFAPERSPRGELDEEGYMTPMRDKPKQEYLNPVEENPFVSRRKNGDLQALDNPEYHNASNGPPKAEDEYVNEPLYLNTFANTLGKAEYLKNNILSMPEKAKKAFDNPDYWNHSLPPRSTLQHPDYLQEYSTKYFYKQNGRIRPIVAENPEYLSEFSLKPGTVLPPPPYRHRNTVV

Assays:
[1] = biological target: Protein kinase C zeta type (Homo sapiens) (UniProt Q05513); conditions: at 1 µM
[2] = biological target: Tyrosine-protein kinase ABL1 (Homo sapiens) (UniProt P00519); conditions: at 1 µM
[3] = biological target: Tyrosine-protein kinase ABL1 (Homo sapiens) (UniProt P00519); conditions: at 10 µM
[4] = biological target: Tyrosine-protein kinase ABL2 (Homo sapiens) (UniProt P42684); conditions: at 1 µM
[5] = biological target: Protein-tyrosine kinase 6 (Homo sapiens) (UniProt Q13882); conditions: at 1 µM
[6] = biological target: Protein-tyrosine kinase 6 (Homo sapiens) (UniProt Q13882); conditions: at 10 µM
[7] = biological target: Tyrosine-protein kinase BTK (Homo sapiens) (UniProt Q06187); conditions: at 10 µM
[8] = biological target: T1, Serine/threonine-protein kinase BRSK2 (Homo sapiens) (UniProt Q8IWQ3); conditions: at 1 µM
T1 sequence (whole entry): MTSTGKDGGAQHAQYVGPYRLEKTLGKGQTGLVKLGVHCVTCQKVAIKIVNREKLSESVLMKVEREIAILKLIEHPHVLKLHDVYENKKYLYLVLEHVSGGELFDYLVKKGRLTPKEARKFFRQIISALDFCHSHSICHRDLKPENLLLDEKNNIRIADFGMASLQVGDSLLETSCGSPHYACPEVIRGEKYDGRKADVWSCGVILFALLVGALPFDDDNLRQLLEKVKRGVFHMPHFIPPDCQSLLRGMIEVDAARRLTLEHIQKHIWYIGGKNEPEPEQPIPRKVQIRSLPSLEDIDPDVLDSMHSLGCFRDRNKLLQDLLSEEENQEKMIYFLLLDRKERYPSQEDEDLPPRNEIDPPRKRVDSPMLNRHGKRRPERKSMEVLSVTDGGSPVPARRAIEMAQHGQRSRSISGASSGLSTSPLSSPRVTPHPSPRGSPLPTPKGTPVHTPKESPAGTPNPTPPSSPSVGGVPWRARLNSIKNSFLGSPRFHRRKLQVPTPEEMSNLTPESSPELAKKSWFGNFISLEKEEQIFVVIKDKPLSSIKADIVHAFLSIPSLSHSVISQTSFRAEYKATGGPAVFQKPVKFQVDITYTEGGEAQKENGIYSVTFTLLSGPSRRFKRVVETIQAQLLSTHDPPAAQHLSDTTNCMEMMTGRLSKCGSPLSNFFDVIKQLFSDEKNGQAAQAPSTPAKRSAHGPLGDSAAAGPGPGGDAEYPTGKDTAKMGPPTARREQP

[9] = biological target: CDK6/cyclin D3 (Homo sapiens) (UniProt P30281+Q00534); conditions: at 1 µM
[10] = biological target: Serine/threonine-protein kinase Chk1 (Homo sapiens) (UniProt O14757); conditions: at 1 µM
[11] = biological target: Serine/threonine-protein kinase Chk1 (Homo sapiens) (UniProt O14757); conditions: at 10 µM
[12] = biological target: Tyrosine-protein kinase CSK (Homo sapiens) (UniProt P41240); conditions: at 1 µM
[13] = biological target: Calcium/calmodulin-dependent protein kinase type IV (Homo sapiens) (UniProt Q16566); conditions: at 1 µM
[14] = biological target: Myotonin-protein kinase (Homo sapiens) (UniProt Q09013); conditions: at 1 µM
[15] = biological target: Dual specificity tyrosine-phosphorylation-regulated kinase 2 (Homo sapiens) (UniProt Q92630); conditions: at 1 µM
[16] = biological target: T2, Ephrin type-A receptor 1 (Homo sapiens) (UniProt P21709); conditions: at 1 µM
T2 sequence (whole entry): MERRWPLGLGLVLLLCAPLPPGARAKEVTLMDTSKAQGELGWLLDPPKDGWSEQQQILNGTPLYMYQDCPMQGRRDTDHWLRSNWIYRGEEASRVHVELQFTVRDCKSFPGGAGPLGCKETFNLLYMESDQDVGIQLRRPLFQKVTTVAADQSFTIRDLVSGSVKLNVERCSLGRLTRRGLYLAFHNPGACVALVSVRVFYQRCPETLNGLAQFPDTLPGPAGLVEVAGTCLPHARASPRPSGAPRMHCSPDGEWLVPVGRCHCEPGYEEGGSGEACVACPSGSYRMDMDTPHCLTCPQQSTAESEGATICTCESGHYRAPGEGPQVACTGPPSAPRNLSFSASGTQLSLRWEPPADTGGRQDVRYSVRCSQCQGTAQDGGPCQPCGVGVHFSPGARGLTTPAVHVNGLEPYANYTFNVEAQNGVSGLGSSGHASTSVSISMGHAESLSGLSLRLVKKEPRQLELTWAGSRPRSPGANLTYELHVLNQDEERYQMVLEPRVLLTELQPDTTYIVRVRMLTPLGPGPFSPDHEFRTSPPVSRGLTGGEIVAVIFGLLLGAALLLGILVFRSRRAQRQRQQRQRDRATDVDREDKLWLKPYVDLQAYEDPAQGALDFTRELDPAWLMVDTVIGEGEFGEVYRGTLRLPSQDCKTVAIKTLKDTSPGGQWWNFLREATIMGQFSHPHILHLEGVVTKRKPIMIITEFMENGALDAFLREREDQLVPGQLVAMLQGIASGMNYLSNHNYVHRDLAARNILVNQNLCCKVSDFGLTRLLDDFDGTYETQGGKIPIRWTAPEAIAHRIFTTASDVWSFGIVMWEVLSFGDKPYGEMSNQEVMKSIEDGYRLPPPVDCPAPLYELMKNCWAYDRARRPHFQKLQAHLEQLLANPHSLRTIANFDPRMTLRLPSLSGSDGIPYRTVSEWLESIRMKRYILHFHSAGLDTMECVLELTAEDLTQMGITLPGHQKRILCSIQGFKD

[17] = biological target: T2, Ephrin type-A receptor 1 (Homo sapiens); conditions: at 10 µM
[18] = biological target: Ephrin type-A receptor 2 (Homo sapiens) (UniProt P29317); conditions: at 10 µM
[19] = biological target: Ephrin type-A receptor 4 (Homo sapiens) (UniProt P54764); conditions: at 10 µM
[20] = biological target: Ephrin type-A receptor 5 (Homo sapiens) (UniProt P54756); conditions: at 1 µM
[21] = biological target: Ephrin type-A receptor 5 (Homo sapiens) (UniProt P54756); conditions: at 10 µM
[22] = biological target: Ephrin type-A receptor 7 (Homo sapiens) (UniProt Q15375); conditions: at 1 µM
[23] = biological target: T3, Ephrin type-B receptor 1 (Homo sapiens) (UniProt P54762); conditions: at 1 µM
T3 sequence (whole entry): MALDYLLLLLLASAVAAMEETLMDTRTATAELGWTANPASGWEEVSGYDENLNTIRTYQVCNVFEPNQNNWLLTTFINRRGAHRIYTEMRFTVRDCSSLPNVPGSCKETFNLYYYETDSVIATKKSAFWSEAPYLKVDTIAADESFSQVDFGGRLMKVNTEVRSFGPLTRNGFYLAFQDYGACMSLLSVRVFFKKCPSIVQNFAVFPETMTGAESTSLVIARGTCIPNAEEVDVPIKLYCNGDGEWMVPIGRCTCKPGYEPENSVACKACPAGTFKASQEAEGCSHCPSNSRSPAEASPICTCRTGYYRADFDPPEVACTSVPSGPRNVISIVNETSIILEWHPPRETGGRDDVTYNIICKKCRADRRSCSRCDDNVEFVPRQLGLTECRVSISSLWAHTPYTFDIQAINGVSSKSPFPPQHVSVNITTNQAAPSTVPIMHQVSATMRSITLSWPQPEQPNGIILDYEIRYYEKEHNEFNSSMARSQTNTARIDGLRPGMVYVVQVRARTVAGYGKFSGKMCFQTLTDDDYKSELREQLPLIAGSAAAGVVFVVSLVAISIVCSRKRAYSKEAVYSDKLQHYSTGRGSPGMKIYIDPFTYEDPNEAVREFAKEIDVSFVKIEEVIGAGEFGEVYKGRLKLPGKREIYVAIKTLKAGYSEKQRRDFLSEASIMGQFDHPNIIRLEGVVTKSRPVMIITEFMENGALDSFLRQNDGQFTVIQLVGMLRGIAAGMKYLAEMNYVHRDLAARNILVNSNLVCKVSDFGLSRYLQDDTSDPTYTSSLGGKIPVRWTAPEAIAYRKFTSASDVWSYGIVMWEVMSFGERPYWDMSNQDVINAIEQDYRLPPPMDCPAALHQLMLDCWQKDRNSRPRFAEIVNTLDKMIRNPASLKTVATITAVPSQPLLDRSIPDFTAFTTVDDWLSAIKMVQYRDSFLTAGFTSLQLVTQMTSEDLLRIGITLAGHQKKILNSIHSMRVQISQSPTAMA

[24] = biological target: Ephrin type-B receptor 2 (Homo sapiens) (UniProt P29323); conditions: at 10 µM
[25] = biological target: Receptor tyrosine-protein kinase erbB-4 (Homo sapiens) (UniProt Q15303); conditions: at 1 µM
[26] = biological target: Receptor tyrosine-protein kinase erbB-4 (Homo sapiens) (UniProt Q15303); conditions: at 10 µM
[27] = biological target: Focal adhesion kinase 1 (Homo sapiens) (UniProt Q05397); conditions: at 1 µM
[28] = biological target: Fibroblast growth factor receptor 3 (Homo sapiens) (UniProt P22607); conditions: at 1 µM
[29] = biological target: Fibroblast growth factor receptor 4 (Homo sapiens) (UniProt P22455); conditions: at 1 µM

O=C1NC(=O)C(c2cn(CCCO)c3ncccc23)=C1c1cnccn1
residual activity [1]: inactive: 100% | residual activity [2]: 101% | residual activity [3]: 105% | residual activity [4]: 101% | residual activity [5]: 112% | residual activity [6]: 110% | residual activity [7]: 102% | residual activity [8]: 113% | residual activity [9]: 110% | residual activity [10]: 102% | residual activity [11]: 94% | residual activity [12]: 118% | residual activity [13]: 105% | residual activity [14]: 111% | residual activity [15]: 103% | residual activity [16]: 103% | residual activity [17]: 101% | residual activity [18]: 100% | residual activity [19]: 109% | residual activity [20]: 106% | residual activity [21]: 101% | residual activity [22]: 109% | residual activity [23]: 109% | residual activity [24]: 104% | residual activity [25]: 101% | residual activity [26]: 95% | residual activity [27]: 102% | residual activity [28]: 104% | residual activity [29]: 107%
